From patent EP4840463A1, “THERAPEUTIC AGENT FOR IDIOPATHIC PULMONARY FIBROSIS” (dated 2026)

What was measured:
IPF lung fibroblasts = assay: Antifibrotic effect on lung fibroblasts isolated from IPF lungs (immunoblot); conditions: 1,000 nM, 48 hours; immunoblot (FIGS. 27 and 28)
Text: (§1) • [FIG. 1] An experimental workflow for spatial transcriptome analysis and scRNA-seq analysis of a human IPF lung. For the spatial transcriptome analysis, nine lung sections derived from three patients were used, and for the scRNA-seq analysis, three IPF lungs and three control lungs were used. • [FIG. 2] A spatial visualization image of fibroblastic foci (FF) annotation based on expression levels of COL1A1, POSTN, and CTHRC1 shown in each panel. […] A UMAP visualization image of an annotated interstitial scRNA-seq dataset from three IPF lung samples and three control lung samples, labeled with detailed cell types. • [FIG. 4] A violin plot showing expression of selected marker genes in each cluster. • [FIG. 5] A UMAP visualization image of the scRNA-seq dataset of FIG. 3 classified by origin from a normal lung or an IPF lung. • [FIG. 6] A bar graph comparing a composition of lung interstitial cell types between healthy subjects and IPF patients. • [FIG. 7] A result of pseudotime trajectory analysis predicting different differentiation trajectories of interstitial cells between healthy subjects and IPF patients. • [FIG. 8] […] A violin plot showing an average expression level of the top 10 upstream regulators detected in FIG. 14 in each cell type. • [FIG. 16] […] A quantitative immunoblot analysis result showing amounts of type I collagen and α-SMA. • [FIG. 26] […]

[1] = system: TGF-β-induced myofibroblast differentiation in lung fibroblasts; assay: TGF-β-induced myofibroblast differentiation model of lung fibroblasts (immunoblot, immunofluorescence); conditions: for TGF-β-induced myofibroblast differentiation based on the protein levels of α-smooth muscle actin (α-SMA) and type I collagen / dose dependence of the inhibitory effects on type I collagen and α-SMA: 100 nM and 1,000 nM; for TGF-β-induced myofibroblast differentiation based on the protein levels of α-smooth muscle actin (α-SMA) and type I collagen: 48 hours, in the presence of TGF-β1 (2 ng/mL), immunoblot (FIG. 24); for inhibitory effects compared with pirfenidone (PFD) and nintedanib (NTD): PFD and NTD as positive controls for inhibiting myofibroblast differentiation; for dose dependence of the inhibitory effects on type I collagen and α-SMA: quantitative immunoblot (FIG. 25)
Text: • [FIG. 1] An experimental workflow for spatial transcriptome analysis and scRNA-seq analysis of a human IPF lung. For the spatial transcriptome analysis, nine lung sections derived from three patients were used, and for the scRNA-seq analysis, three IPF lungs and three control lungs were used. • [FIG. 2] A spatial visualization image of fibroblastic foci (FF) annotation based on expression levels of COL1A1, POSTN, and CTHRC1 shown in each panel. […] A UMAP visualization image of an annotated interstitial scRNA-seq dataset from three IPF lung samples and three control lung samples, labeled with detailed cell types. • [FIG. 4] A violin plot showing expression of selected marker genes in each cluster. • [FIG. 5] A UMAP visualization image of the scRNA-seq dataset of FIG. 3 classified by origin from a normal lung or an IPF lung. • [FIG. 6] A bar graph comparing a composition of lung interstitial cell types between healthy subjects and IPF patients. • [FIG. 7] A result of pseudotime trajectory analysis predicting different differentiation trajectories of interstitial cells between healthy subjects and IPF patients. • [FIG. 8] An immunohistochemical image of PDGFRA, CTHRC1, and WNT5A in fibroblastic foci in IPF lung tissue. • [FIG. 9] A result of spatial visualization of FF and advanced fibrotic lesion (DF) annotation along an estimated cell type distribution on a Visium section. In a representative zoom-in image of a boundary box region showing hematoxylin and eosin (H&E) staining, FF and DF in IPF lung tissue are highlighted. • [FIG. 10] A result of 3D PCA mapping using 97 extracted FF spots and 412 extracted DF spots. • [FIG. 11] A dot plot showing what types of interstitial cells are present in FF, DF, and SMC regions selected on Visium by integrated analysis of single-cell data and spatial analysis data. • [FIG. 12] A spatial transcriptome spot (patient JKPF2-1) of an FF index. • [FIG. 13] A bar graph representing a ratio of a high FF index population and a low FF index population in an interstitial cell type. • [FIG. 14] A result of upstream regulator prediction by IPA for 746 differentially expressed genes between FF and DF. The top 10 upstream regulators predicted to be "activated" are shown. • [FIG. 15] A violin plot showing an average expression level of the top 10 upstream regulators detected in FIG. 14 in each cell type. • [FIG. 16] […] A violin plot showing expression of PAK2 in high FF index interstitial cells and low FF index interstitial cells. • [FIG. 19] A spatial visualization result of a PAK target gene signature and an estimated cell type distribution along the FF/DF annotation on a Visium section. • [FIG. 20] A dot plot showing expression of PAK family genes compared between interstitial cells of a normal lung sample and an IPF lung sample. • [FIG. 21] A result of hematoxylin and eosin (H&E) staining and immunohistochemical staining for PAK1, PAK2, and PAK3 in fibroblastic foci of IPF lung tissue. • [FIG. 22] A result showing an effect of siRNA-mediated PAK1/2 knockdown on TGF-β-induced myofibroblast differentiation in lung fibroblasts. […] A result of qPCR showing expression of WNT5A in PAK1- or PAK2-knockdown human lung fibroblasts after 48 hours of TGF-β1 (2 ng/mL) treatment. • [FIG. 24] A result showing an effect of PAK inhibitors FRAX486 and FRAX597 on TGF-β-induced myofibroblast differentiation in lung fibroblasts. […] Pirfenidone (PFD) and nintedanib (NTD) were used as positive controls for inhibiting myofibroblast differentiation. • [FIG. 25] A quantitative immunoblot analysis result showing amounts of type I collagen and α-SMA. • [FIG. 26] An immunoblot analysis result showing the amounts of PAK2 and its downstream signals in TGF-β-induced myofibroblasts treated with FRAX486 (1,000 nM) and FRAX597 (1,000 nM) for 48 hours in the presence of TGF-β1. • [FIG. 27] A result showing an effect of a PAK2 inhibitor on IPF lung fibroblasts. […]

[2] = system: PAK2 and its downstream signals; assay: Western blotting of PAK2 and its downstream signals in TGF-β-induced myofibroblasts; conditions: 1,000 nM, 48 hours, in the presence of TGF-β1; Western blotting (FIG. 26)
Text: • [FIG. 1] An experimental workflow for spatial transcriptome analysis and scRNA-seq analysis of a human IPF lung. For the spatial transcriptome analysis, nine lung sections derived from three patients were used, and for the scRNA-seq analysis, three IPF lungs and three control lungs were used. • [FIG. 2] A spatial visualization image of fibroblastic foci (FF) annotation based on expression levels of COL1A1, POSTN, and CTHRC1 shown in each panel. […] A UMAP visualization image of an annotated interstitial scRNA-seq dataset from three IPF lung samples and three control lung samples, labeled with detailed cell types. • [FIG. 4] A violin plot showing expression of selected marker genes in each cluster. • [FIG. 5] A UMAP visualization image of the scRNA-seq dataset of FIG. 3 classified by origin from a normal lung or an IPF lung. • [FIG. 6] A bar graph comparing a composition of lung interstitial cell types between healthy subjects and IPF patients. • [FIG. 7] A result of pseudotime trajectory analysis predicting different differentiation trajectories of interstitial cells between healthy subjects and IPF patients. • [FIG. 8] An immunohistochemical image of PDGFRA, CTHRC1, and WNT5A in fibroblastic foci in IPF lung tissue. • [FIG. 9] A result of spatial visualization of FF and advanced fibrotic lesion (DF) annotation along an estimated cell type distribution on a Visium section. In a representative zoom-in image of a boundary box region showing hematoxylin and eosin (H&E) staining, FF and DF in IPF lung tissue are highlighted. • [FIG. 10] A result of 3D PCA mapping using 97 extracted FF spots and 412 extracted DF spots. • [FIG. 11] A dot plot showing what types of interstitial cells are present in FF, DF, and SMC regions selected on Visium by integrated analysis of single-cell data and spatial analysis data. • [FIG. 12] A spatial transcriptome spot (patient JKPF2-1) of an FF index. • [FIG. 13] A bar graph representing a ratio of a high FF index population and a low FF index population in an interstitial cell type. • [FIG. 14] A result of upstream regulator prediction by IPA for 746 differentially expressed genes between FF and DF. The top 10 upstream regulators predicted to be "activated" are shown. • [FIG. 15] A violin plot showing an average expression level of the top 10 upstream regulators detected in FIG. 14 in each cell type. • [FIG. 16] […] A violin plot showing expression of PAK2 in high FF index interstitial cells and low FF index interstitial cells. • [FIG. 19] A spatial visualization result of a PAK target gene signature and an estimated cell type distribution along the FF/DF annotation on a Visium section. • [FIG. 20] […] A quantitative immunoblot analysis result showing amounts of type I collagen and α-SMA. • [FIG. 26] […]

[3] = system: bleomycin (BLM)-induced pulmonary fibrosis mouse model; assay: Bleomycin (BLM)-induced pulmonary fibrosis mouse model
Text: • [FIG. 1] An experimental workflow for spatial transcriptome analysis and scRNA-seq analysis of a human IPF lung. For the spatial transcriptome analysis, nine lung sections derived from three patients were used, and for the scRNA-seq analysis, three IPF lungs and three control lungs were used. • [FIG. 2] A spatial visualization image of fibroblastic foci (FF) annotation based on expression levels of COL1A1, POSTN, and CTHRC1 shown in each panel. […] A UMAP visualization image of an annotated interstitial scRNA-seq dataset from three IPF lung samples and three control lung samples, labeled with detailed cell types. • [FIG. 4] A violin plot showing expression of selected marker genes in each cluster. • [FIG. 5] A UMAP visualization image of the scRNA-seq dataset of FIG. 3 classified by origin from a normal lung or an IPF lung. • [FIG. 6] A bar graph comparing a composition of lung interstitial cell types between healthy subjects and IPF patients. • [FIG. 7] A result of pseudotime trajectory analysis predicting different differentiation trajectories of interstitial cells between healthy subjects and IPF patients. • [FIG. 8] An immunohistochemical image of PDGFRA, CTHRC1, and WNT5A in fibroblastic foci in IPF lung tissue. • [FIG. 9] A result of spatial visualization of FF and advanced fibrotic lesion (DF) annotation along an estimated cell type distribution on a Visium section. In a representative zoom-in image of a boundary box region showing hematoxylin and eosin (H&E) staining, FF and DF in IPF lung tissue are highlighted. • [FIG. 10] A result of 3D PCA mapping using 97 extracted FF spots and 412 extracted DF spots. • [FIG. 11] A dot plot showing what types of interstitial cells are present in FF, DF, and SMC regions selected on Visium by integrated analysis of single-cell data and spatial analysis data. • [FIG. 12] […] A violin plot showing an average expression level of the top 10 upstream regulators detected in FIG. 14 in each cell type. • [FIG. 16] […] A quantitative immunoblot analysis result showing amounts of type I collagen and α-SMA. • [FIG. 26] […]

[4] = system: phosphorylated PAK2 (p-PAK2); assay: p-PAK2 immunohistochemistry of lung sections of BLM-induced mice; conditions: immunohistochemical analysis (FIG. 36)
Text: as §1

PAK2 downstream proteins = PAK2 downstream proteins in IPF-derived fibroblasts
Description: Next, the antifibrotic effects of FRAX486 and FRAX597 on lung fibroblasts isolated from IPF lungs were evaluated. […] Furthermore, RT-PCR analysis confirmed the transcriptional inhibition of PAK2 downstream targets in IPF fibroblasts.

SMILES	expression of α-SMA and type I collagen in IPF-derived fibroblasts (IPF lung fibroblasts)	TGF-β-induced myofibroblast differentiation based on the protein levels of α-smooth muscle actin (α-SMA) and type I collagen [1]	inhibitory effects compared with pirfenidone (PFD) and nintedanib (NTD) [1]	immunofluorescence labeling of αSMA and type I collagen: effect on TGF-β-induced myofibroblast differentiation [1]	dose dependence of the inhibitory effects on type I collagen and α-SMA [1]	in vitro efficacy of FRAX486 relative to FRAX597 ([1]; summary of the in vitro results)	expression and phosphorylation of PAK2, c-Abl, and LIMK1 [2]	expression and phosphorylation of SMAD2/3 [2]	development of BLM-induced pulmonary fibrosis (hydroxyproline assay and Masson's trichrome staining) ([3]; intraperitoneal injection, left lung hydroxyproline (FIGS. 33 and 34))	body weight of BLM-induced mice ([3]; intraperitoneal, from the 7th day after BLM treatment, day 21 levels comparable to control mice (FIG. 32))	fibrotic lesions, quantification using an Ashcroft score ([3]; intraperitoneal, FIG. 35)	expression of phosphorylated PAK2 (p-PAK2) in the lungs of BLM-induced mice [4]	expression of PAK2 downstream proteins in IPF-derived fibroblasts (PAK2 downstream proteins)
CCn1c(=O)c(-c2ccc(Cl)cc2Cl)cc2cnc(Nc3ccc(N4CCNCC4)c(F)c3)nc21	significantly reduced	strongly suppressed	significantly exceeded the effects of two antifibrotic drugs	inhibitory effects	dose-dependent	superior efficacy compared to FRAX597	suppressed	did not suppress	significantly reduced	restored	significant decrease	significantly inhibited	significantly inhibited
CCn1c(=O)c(-c2ccc(-c3cncs3)cc2Cl)cc2cnc(Nc3ccc(N4CCN(C)CC4)cc3)nc21	significantly reduced	strongly suppressed	significantly exceeded the effects of two antifibrotic drugs	inhibitory effects	dose-dependent	–	suppressed	did not suppress	–	–	–	–	significantly inhibited
